Measurements from PubChem BioAssay (Tox21).
This is a selection; strong and weak results do not stand in their true shares. Results filed as inconclusive are left out. Calls of active or inactive are those of the source. Unless noted, the call rests on the fitted dose curve; in most records, active means well fitted curve in the direction sought with a large enough effect in the repeat runs; inconclusive means weak or mixed curves; inactive means no such curve, though single readings can be large; an effect the other way counts as inactive or inconclusive.

Tests used:
[1] = A CellTox Green Cytotoxicity Assay to monitor cytotoxicity in HEK293 cells - 16 hour (AID 1224888); details: CellTox Green fluorescence, stronger effect = higher value; further: nearly all actives have a fitted effect of over 35% in size
In short: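 Homogeneous no-lysis format: HEK293 cell suspension mixed with CellTox Green reagent, seeded, incubated 5 h at 37 C/5% CO2, then dosed by pintool with compound in DMSO.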

[2] = qHTS RealTime-Glo MT Cell Viability Assay in HepG2 cells - 0 hour (AID 1224889); details: RealTime-Glo luminescence; further: nearly all actives have a fitted effect of over 50% in size
In short: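 HepG2 suspension premixed with RealTime-Glo reagents is plated at 600 cells per well and left 5 h at 37 C/5% CO2. Compounds in DMSO then go in, and bioluminescence reflecting viable cell number is recorded over 40 h.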

[3] = A CellTox Green Cytotoxicity Assay to monitor cytotoxicity in HepG2 cells - 8 hour (AID 1224890); details: CellTox Green fluorescence; further: nearly all actives have a fitted effect of over 45% in size
In short: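 Fluorescent DNA-binding dye, 600 HepG2 cells/well, 5 h preincubation then compound in DMSO; same plates read at 0–40 h, 37 C.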

[4] = qHTS assay to identify small molecule antagonists of the estrogen receptor alpha (ER-alpha) signaling pathway using the BG1 cell line in the presence of 0.1 nM 17-beta-estradiol - cell viability counter screen (AID 1259241); details: VM7Luc4E2 (BG1) viability, CellTiter-Fluor protease, 22 h, 0.1 nM estradiol agonist added; further: nearly all actives have a fitted effect of over 40% in size
In short: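 Measures cytotoxicity alongside the ER-alpha antagonist readout: VM7Luc4E2 cells, charcoal-stripped serum, 0.1 nM 17beta-estradiol final, 22 hr compound incubation at 37C, CellTiter-Fluor fluorescence.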

[5] = qHTS assay to identify small molecule HDAC inhibitors (AID 1259364); details: HCT-116 HDAC-Glo I/II luminescence, 2 h; further: top concentration of the series differs between compounds; nearly all actives have a fitted effect of over 45% in size
Text: U.S. Tox21 Program National Center for Advancing Translational Sciences [NCATS] NIH Chemical Genomics Center [NCGC] U.S. Environmental Protection Agency [EPA] National Institutes of Environmental Health Sciences [NIEHS] National Toxicology Program [NTP] U.S. Food and Drug Administration [FDA] Tox21 Assay Overview: Histone deacetylases (HDACs) are a group of epigenetic enzymes that regulate gene expression by histone deacetylation. HDACs are capable of introducing epigenetic modifications and such aberrations contribute to the onset and progression of several human diseases, thus making HDACs a popular therapeutic target. For identifying endogenous class I/II HDAC inhibitors a homogenous, luminogenic HDAC I/II cell based assay was used to measure the relative activity of class I and II HDACs from cells. Wild type HCT-116 cells were used to screen Tox21 libraries for identifying class I/II HDAC inhibitors.
Tox21 Assay Protocol Summary: HCT-116 cells were dispensed at 1,500 per well in 5uL of culture medium into white solid bottom 1536-well plates (Greiner Bio-One, Monroe, NC) using a Multidrop Combi (Thermo Scientific, Waltham, MA) dispenser. The assay plates were incubated at 37 C and 5% CO2 for an overnight, and then 23nL of compounds dissolved in DMSO and positive control were transferred using a Pintool station (Wako, San Diego, CA). The assay plates were incubated at 37C and 5% CO2 for 2hr. After compound treatment, 4uL of HDAC-Glo reagent (Promega Corporation, Madison, WI) was added to each well of the assay plates using Flying Reagent Dispenser (FRD, Aurora Discovery, San Diego, CA) and incubated the assay plates at room temperature for 30min. The luminescence signal was quantified using a ViewLux plate reader (Perkin Elmer, Shelton, CT).

[6] = qHTS assay to identify small molecule HDAC inhibitors - cell viability counter screen (AID 1259365); details: HCT-116 viability, CellTiter-Glo ATP luminescence, 2 h; further: nearly all actives have a fitted effect of over 50% in size
In short: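 Following a 2hr exposure of overnight-plated wild-type HCT-116 cells to DMSO-delivered compounds, CellTiter-Glo was added and luminescence recorded after 30min at room temperature.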

[7] = qHTS assay to identify small molecule agonists of the sonic hedgehog signaling (Shh) pathway (AID 1259368; calls by dose curve;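 further: NIH/3T3-derived 3T3Gli1-Luc cells carrying a stable Gli1-driven firefly luciferase reporter; nearly all actives have a fitted effect of over 15% in size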); details: NIH/3T3 Gli1-Luc reporter, luciferase, 24 h, stronger effect = higher value
In short: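 Stable NIH/3T3 Gli1-Luc reporter clone; 24 hr cpd exposure after a 4 hr settling period; luminescence endpoint.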

[8] = qHTS assay to identify small molecule antagonists of the androgen receptor (AR) signaling pathway using the MDA cell line in the presence of 0.5 nM R1881 - cell viability counter screen (AID 1259242); details: MDA-kb2 viability, CellTiter-Fluor protease fluorescence, 16 h; at 92.4 µM (top of the series); further: nearly all actives have a fitted effect of over 45% in size
In short: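 Human breast carcinoma MDA-kb2 cells, cultured without CO2, receive compounds alongside 0.5 nM (final) R1881 agonist. After 16 hr at 37C, viability is taken as live-cell protease signal.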

[9] = qHTS assay to identify small molecule antagonists of the sonic hedgehog signaling (Shh) pathway - cell viability counter screen (AID 1259367); details: NIH/3T3 Gli1-Luc viability, CellTiter-Fluor, 24 h; at 92.4 µM (top of the series); further: nearly all actives have a fitted effect of over 55% in size
Text: National Center for Advancing Translational Sciences [NCATS]
NIH Chemical Genomics Center [NCGC]
U.S. Environmental Protection Agency [EPA]
National Institutes of Environmental Health Sciences [NIEHS]
National Toxicology Program [NTP]
U.S. Food and Drug Administration [FDA]
The sonic hedgehog (Shh) pathway is essential for normal embryonic development. Dysregulation of the Shh pathway can cause severe developmental defects in organs. Therefore chemicals that interfere with the pathway are potential developmental toxicants. A cell line designated 3T3Gli1-Luc (DMB/OARSA/CFSAN/FDA, Laurel, MD), a NIH/3T3 derived clone containing stably integrated Gli1-Luc reporter is used to detect chemical interference of the Shh pathway, by changes in the expression of the firefly Luc gene under the control of the Gli1 transcriptional response element. This cell line was used to screen Tox21 libraries for identifying and prioritizing the potential developmental toxicants that interfere Shh pathway. Conditioned medium-stimulated mode was used to screen for chemicals inhibiting Shh signaling. The cytotoxicity of the compounds was tested in parallel by measuring the cell viability using CellTiter-Fluor assay system (Promega, Madison, WI) in the same wells.
Tox21 Assay Protocol Summary:
3T3 Gli1-Luc cells were dispensed at 2,000 per well in 5uL of culture medium into white solid bottom 1536-well plates (Greiner Bio-One, Monroe, NC) using a Multidrop Combi (Thermo Scientific, Waltham, MA) dispenser. The assay plates were incubated at 37 C and 5% CO2 for 4hr, and then 23nL of compounds dissolved in DMSO and positive control were transferred using a Pintool station (Wako, San Diego, CA). […] For viability read, after 23hr of compound treatment, 1uL of CellTiter-Fluor reagent (Promega Corporation, Madison, WI) was added to each well of the assay plates using Flying Reagent Dispenser (FRD, Aurora Discovery, San Diego, CA) and incubated the assay plates at 37C for 1hr. The fluorescence signal was quantified using a ViewLux plate reader (Perkin Elmer, Shelton, CT).

[10] = qHTS assay to identify small molecule agonists of the sonic hedgehog signaling (Shh) pathway - cell viability counter screen (AID 1259366); details: NIH/3T3 Gli1-Luc viability, CellTiter-Fluor, 24 h; at 92.4 µM (top of the series); further: nearly all actives have a fitted effect of over 50% in size
In short: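 After a 4hr attachment at 37C, NIH/3T3 cells bearing an integrated Gli1-driven luciferase reporter were dosed with compounds. Treatment lasted 24hr, with the final hour including CellTiter-Fluor for a fluorescence viability measurement.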
On the % scale 0 is the no-effect control and ±100 the full control effect.

CN(CCCl)CCCl
inactive: activity change ([1]; at 35.3 µM (top of the series)) 0.842% | activity change ([1]; at 76.8 µM (top of the series)) -5.17% | activity change, negative = cytotoxicity ([2]; at 35.3 µM (top of the series)) -1.83% | activity change, negative = cytotoxicity ([2]; at 76.8 µM (top of the series)) -2.81% | cytotoxicity increase ([3]; at 35.3 µM (top of the series)) -0.857% | cytotoxicity increase ([3]; at 76.8 µM (top of the series)) -8.77% | activity change, negative = cytotoxicity ([4]; at 42.5 µM (top of the series)) -1.72% | activity change, negative = cytotoxicity ([4]; at 92.4 µM (top of the series)) -33.9% | activity change, negative = inhibition ([5]; at 42.5 µM (top of the series)) 3.52% | activity change, negative = inhibition ([5]; at 92.4 µM (top of the series)) 2.05% | activity change, negative = cytotoxicity ([6]; at 42.5 µM (top of the series)) 14.1% | activity change, negative = cytotoxicity ([6]; at 92.4 µM (top of the series)) 11% | activity change ([7]; at 42.5 µM (top of the series)) 0.995% | activity change ([7]; at 92.4 µM (top of the series)) -20.3%

O=[N+]([O-])C(Cl)(Cl)Cl
inactive: activity change ([1]; at 76.8 µM (top of the series)) 19% | activity change, negative = cytotoxicity ([2]; at 76.8 µM (top of the series)) 3.53% | cytotoxicity increase ([3]; at 76.8 µM (top of the series)) -12.7% | activity change, negative = cytotoxicity ([4]; at 92.4 µM (top of the series)) 4.65% | viability change, negative = cytotoxic [8] 2.29% | activity change, negative = inhibition ([5]; at 92.4 µM (top of the series)) -3.8% | activity change, negative = cytotoxicity ([6]; at 92.4 µM (top of the series)) 7.81% | viability change, negative = cytotoxic [9] 2.74% | activity change ([7]; at 92.4 µM (top of the series)) 1.21%

CCC(=O)N(c1ccccc1)C1(COC)CCN(CCn2nnn(CC)c2=O)CC1
inactive: activity change ([1]; at 76.8 µM (top of the series)) -0.254% | activity change, negative = cytotoxicity ([2]; at 76.8 µM (top of the series)) -3.67% | cytotoxicity increase ([3]; at 76.8 µM (top of the series)) -4.79% | activity change, negative = cytotoxicity ([4]; at 92.4 µM (top of the series)) 9.98% | viability change, negative = cytotoxic [8] 0.757% | activity change, negative = inhibition ([5]; at 92.4 µM (top of the series)) -3.12% | activity change, negative = cytotoxicity ([6]; at 92.4 µM (top of the series)) -1.26% | viability change, negative = cytotoxic [10] -2.7% | viability change, negative = cytotoxic [9] -7.67% | activity change ([7]; at 92.4 µM (top of the series)) 0.0987%

CCC(=O)N(c1ccccc1)C1(COC)CCN(CCc2cccs2)CC1
inactive: activity change ([1]; at 76.8 µM (top of the series)) 4.52% | activity change, negative = cytotoxicity ([2]; at 76.8 µM (top of the series)) -1.02% | cytotoxicity increase ([3]; at 76.8 µM (top of the series)) 0.633% | activity change, negative = cytotoxicity ([4]; at 92.4 µM (top of the series)) -3.78% | activity change, negative = inhibition ([5]; at 92.4 µM (top of the series)) 10.4% | activity change, negative = cytotoxicity ([6]; at 92.4 µM (top of the series)) -5.19% | viability change, negative = cytotoxic [9] -11.1% | activity change ([7]; at 92.4 µM (top of the series)) -1.06%
